Values quoted from earlier work in article PMC7923178, “Binding of Amyloid β(1–42)-Calmodulin Complexes to Plasma Membrane Lipid Rafts in Cerebellar Granule Neurons Alters Resting Cytosolic Calcium Homeostasis” (International Journal of Molecular Sciences, 2021).

Amino acid sequences for entries named in this document (tags omitted). Residues count along the entry.
UniProt P49840, 2-483: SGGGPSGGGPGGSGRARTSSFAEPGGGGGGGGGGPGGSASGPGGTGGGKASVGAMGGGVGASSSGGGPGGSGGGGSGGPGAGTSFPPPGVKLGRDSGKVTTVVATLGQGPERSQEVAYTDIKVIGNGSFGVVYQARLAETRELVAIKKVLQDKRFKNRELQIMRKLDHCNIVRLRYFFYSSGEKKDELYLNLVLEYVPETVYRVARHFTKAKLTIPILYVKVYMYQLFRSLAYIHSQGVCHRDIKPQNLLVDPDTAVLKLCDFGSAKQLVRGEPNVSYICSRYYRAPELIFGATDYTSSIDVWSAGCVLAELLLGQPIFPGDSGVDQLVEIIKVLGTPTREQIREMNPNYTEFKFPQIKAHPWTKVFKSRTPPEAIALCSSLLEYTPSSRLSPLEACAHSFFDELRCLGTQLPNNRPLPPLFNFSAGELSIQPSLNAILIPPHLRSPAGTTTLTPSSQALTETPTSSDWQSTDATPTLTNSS

Biological target: GSK3alpha (UniProt P49840)

amyloid beta (from UniProt P05067)
Kd: 1 nM
